Results as given in patent publication US12421210B2, “Fused bicyclic heterocycles as therapeutic agents” (NEW YORK UNIVERSITY, priority 2018, dated 2025).

By UniProt entry, the sequences of proteins in these tests, tags left out.
UniProt P43490, whole entry: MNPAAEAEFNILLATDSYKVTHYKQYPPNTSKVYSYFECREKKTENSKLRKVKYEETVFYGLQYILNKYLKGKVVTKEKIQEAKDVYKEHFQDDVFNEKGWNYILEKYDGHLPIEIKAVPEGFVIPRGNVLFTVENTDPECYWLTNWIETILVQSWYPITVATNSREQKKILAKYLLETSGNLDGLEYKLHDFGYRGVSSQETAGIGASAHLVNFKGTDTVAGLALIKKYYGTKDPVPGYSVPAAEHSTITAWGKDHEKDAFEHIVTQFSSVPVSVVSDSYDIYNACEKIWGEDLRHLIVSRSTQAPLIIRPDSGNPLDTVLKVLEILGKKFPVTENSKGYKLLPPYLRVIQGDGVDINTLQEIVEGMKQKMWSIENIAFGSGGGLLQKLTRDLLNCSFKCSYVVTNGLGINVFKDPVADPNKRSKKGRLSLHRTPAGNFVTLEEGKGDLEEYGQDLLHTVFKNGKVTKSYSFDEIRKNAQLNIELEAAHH

Molecular target: human NAMPT enzyme (His-hNAMPT) (Homo sapiens (Human), UniProt P43490)
Assay: NAMPT enzymatic inhibition assay (fluorescence, NADH product)
Settings: read-out: NAMPT IC50 (μM) [HDB]

IC50: 0.01 to 0.49 µM
SMILES: O=C(/C=C/c1cccnc1)NCCC1C2CN(c3ccccc3)C(=O)C12 (single isomer, unassigned)
